# From paper PMC10970924, “Anticancer Potential of Pyridoxine-Based Doxorubicin Derivatives: An In Vitro Study” (Life, 2024)
# Columns and labels:
# PC-3 cells = details: PC-3, 0.5 µM (IC25), 3 days
# [1] = test system: chicken erythrocyte genomic DNA; experiment: Spectrophotometry of complexation with genomic DNA
# HCT-116 = experiment: MTS cytotoxicity assay; details: from the mean IC50 value for HSF cells
# Description: (§1) The study utilized human cell lines including PC-3 (human prostate adenocarcinoma), HSF (primary human skin fibroblasts), MDA-MB-231 (estrogen-negative breast adenocarcinoma), MCF-7 (estrogen-positive breast adenocarcinoma), MSC (multipotent stem cells derived from adipose tissue), SF-539 (brain gliosarcoma), SNB-19 (glioblastoma), A-498 (kidney carcinoma), M-14 (human melanoma), NCI-H322-M (primary bronchioalveolar carcinoma), HCT-15 (colon adenocarcinoma), and HCT-116 (colorectal intestinal carcinoma). We also used immortalized C2C12 mouse myoblasts (ATCC—CRL-1772). Cancer cell lines were obtained from the ATCC collection and generously provided by the Fox Chase Cancer Center (Philadelphia, USA). Conditionally normal cells, including skin fibroblasts and multipotent stem cells, were isolated by our group from postoperative materials (skin and subcutaneous fat) obtained from a conditionally healthy donor. Reagents and consumables for cell culture work were purchased from PanEco (Russia).
# (§2) The cytotoxicity of the compounds under study was assessed using MTS assay on cell cultures. Cells were seeded into 96-well plates at a concentration of 10,000–20,000 cells/mL. After 24 h, gradient concentrations of the compounds were added to the culture medium and the plates were incubated for 72 h. Subsequently, the culture medium was replaced with MTS reagents (Sigma-Aldrich, Burlington, MA, USA) (MTS:PMS (0.18:0.0092 mg/mL)) and dissolved in phenol-free RPMI 1640 medium. After 2 h of incubation, the resulting water-soluble formazan was measured using the TECAN Infinite M200 Pro microplate reader at wavelengths of 555/750 nm. As a control, equivalent volumes of the solvents in which each compound was dissolved (dH2O/DMSO) were used. To calculate the percentage of viable cells relative to the control, which was considered 100%, dose-response curves were plotted against the logarithm of the compound concentration. […]
# PC-3 = experiment: MTS cytotoxicity assay; details: from the mean IC50 value for HSF cells
# Description: as §1, §2
# MCF-7 = experiment: MTS cytotoxicity assay; details: from the mean IC50 value for HSF cells
# Description: as §1, §2
smiles,measurement,setting,value
"COc1cccc2c1C(=O)c1c(O)c3c(c(O)c1C2=O)C[C@@](O)(C(=O)CO)C[C@@H]3O[C@H]1C[C@H](N)[C@H](O)[C@H](C)O1 [DOX, Doxorubicin]",Tail Moment,PC-3 cells,13.45
same,Shift of the Absorption Maximum Relative to Control,[1]; DNA concentration 15 µg/mL,14 nm
same,Shift of the Absorption Maximum Relative to Control,[1]; DNA concentration 20 µg/mL,14 nm
same,Shift of the Absorption Maximum Relative to Control,[1]; DNA concentration 30 µg/mL,20 nm
same,Shift of the Absorption Maximum Relative to Control,[1]; DNA concentration 60 µg/mL,25 nm
same,Shift of the peak to a longer wavelength on interaction with genomic DNA,[1]; over the DNA concentrations tested,14–25 nm
same,Selectivity index IC50 HSF/IC50 HCT-116,HCT-116,1.55 ± 1.45
same,Selectivity index IC50 HSF/IC50 PC-3,PC-3,1.72 ± 1.56
same,Selectivity index IC50 HSF/IC50 MCF-7,MCF-7,16.45 ± 8.5
